Reference: PubChem BioAssay AID488839 (Broad Institute, 2010)
The list shows a part of the results, in another mix than the full data. Some tests of the compounds listed are not included; inactive here does not mean inactive elsewhere. The source made the active and inactive calls.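 Rule for the calls: active = highest replicate inhibition of at least 50% and at least 75% of replicates reaching 50%; inconclusive = only one of the two criteria met; inactive = both criteria failed.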

Chains of the proteins cited; added tags and fusions are not shown.
UniProt Q00535, whole entry, looked up: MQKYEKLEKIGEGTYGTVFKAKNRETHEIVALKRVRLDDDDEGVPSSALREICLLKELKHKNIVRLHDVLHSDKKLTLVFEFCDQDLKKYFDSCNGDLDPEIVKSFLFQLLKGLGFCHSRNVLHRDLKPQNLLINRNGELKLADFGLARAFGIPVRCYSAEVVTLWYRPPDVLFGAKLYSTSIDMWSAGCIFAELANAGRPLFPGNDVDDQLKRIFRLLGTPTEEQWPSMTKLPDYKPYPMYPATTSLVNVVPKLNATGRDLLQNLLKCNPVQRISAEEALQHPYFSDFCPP
UniProt Q15078, whole entry, looked up: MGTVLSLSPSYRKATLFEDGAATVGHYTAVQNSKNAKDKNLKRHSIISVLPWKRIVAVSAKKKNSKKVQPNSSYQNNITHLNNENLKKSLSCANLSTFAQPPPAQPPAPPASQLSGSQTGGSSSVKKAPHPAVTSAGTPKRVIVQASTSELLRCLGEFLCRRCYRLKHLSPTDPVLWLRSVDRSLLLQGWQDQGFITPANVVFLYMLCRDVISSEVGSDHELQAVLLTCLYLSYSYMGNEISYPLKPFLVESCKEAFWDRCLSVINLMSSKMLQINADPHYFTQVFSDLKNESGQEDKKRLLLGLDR

biological target: Cyclin-dependent kinase 5 (Homo sapiens) + Cyclin-dependent kinase 5 activator 1 (Homo sapiens) (UniProt Q00535+Q15078); assay: CDK5/p35 phosphotransfer blockade – biochemical, single concentration, primary screen (AID 488839); conditions: Recombinant CDK5/p35, ADP-Glo luminescence, 60 min; at 10 µM; active compounds read high;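 note: plate controls were DMSO neutral control for no effect and GW8510 at 10 µM for full effect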

Question: Which inhibition does the source give for `COc1cccc(C(=O)NCC2(N3CCCCC3)CCCCC2)c1` here?
Answer: The inhibition was inactive: 0.689%.

Question: How did the inhibition turn out when `COc1ccc(Cl)cc1C(=O)NCC1(N(C)C)CCCCC1` was run?
Answer: The inhibition was inactive: -0.454%.

Question: For `O=C(NCC1(N2CCCCC2)CCCCC1)c1cccc(Cl)c1`, which inhibition is on record?
Answer: The inhibition was inactive: 1.55%.

Question: `CN(C)C1(CNC(=O)c2ccc(Br)cc2)CCCCC1` was tested. Which inhibition did it give?
Answer: The inhibition was inactive: -0.31%.

Question: `COc1cc(C(=O)NCC2(N(C)C)CCCCC2)c([N+](=O)[O-])cc1OC` was tested. Which inhibition did it give?
Answer: Its inhibition is inactive: -0.445%.

Question: Which inhibition does the source give for `COc1ccc(Br)c(C(=O)NCC2(N3CCCCC3)CCCCC2)c1` here?
Answer: The inhibition was inactive: -4.33%.

Question: Which inhibition does the source give for `CC(C)Oc1ccc(C(=O)NCC2(N(C)C)CCCCC2)cc1` here?
Answer: Its inhibition is inactive: 0.983%.

Question: With `O=C(OCCN1CCCC1)C(O)(c1ccccc1)c1ccccc1` as the compound, how does the inhibition read?
Answer: The inhibition was inactive: -0.8%.

Question: Which inhibition does the source give for `CN(C)c1cccc(C(=O)NCC2(N(C)C)CCCCC2)c1` here?
Answer: Its inhibition is inactive: 1.49%.

Question: Which inhibition does the source give for `O=C(OC1CN2CCC1CC2)C(CO)(c1ccccc1)c1ccccc1` (stereo not given) here?
Answer: The inhibition was inactive: -0.711%.

Question: With `CCN(CC)CC(C)C(C)OC(=O)C(O)(c1ccccc1)c1ccccc1` (stereo not given) as the compound, how does the inhibition read?
Answer: Its inhibition is inactive: 0.389%.

Question: Which inhibition does the source give for `COc1cc(SC)ccc1C(=O)NCC1(N(C)C)CCCCC1` here?
Answer: The inhibition was inactive: -0.918%.

Question: For `CC(C)N1C(=O)CC2(CCN(CCOC(=O)C(O)(c3ccccc3)c3ccccc3)CC2)C1=O`, which inhibition is on record?
Answer: Its inhibition is inactive: -0.851%.

Question: Which inhibition does the source give for `Cc1ccc(C(=O)NCC2(N3CCCCC3)CCCCC2)cc1` here?
Answer: Its inhibition is inactive: 0.482%.

Question: `O=C(NCC1(N2CCCCC2)CCCCC1)c1cc([N+](=O)[O-])ccc1Cl` was tested. Which inhibition did it give?
Answer: The inhibition was inactive: 2.47%.

Question: With `CN1[C@@H]2CC[C@H]1CC(OC(=O)C(O)(c1ccccc1)c1ccccc1)C2` (stereo not given in full) as the compound, how does the inhibition read?
Answer: Its inhibition is inactive: -1.09%.

Question: With `C=CCN1CCN(CCOC(=O)C(O)(c2ccccc2)c2ccccc2)CC1` as the compound, how does the inhibition read?
Answer: Its inhibition is inactive: 0.289%.

Question: For `O=C(NCC1(N2CCCCC2)CCCCC1)c1cc(F)c(F)cc1Cl`, which inhibition is on record?
Answer: Its inhibition is inactive: -0.53%.

Question: For `COc1ccc(C(=O)NCC2(N(C)C)CCCCC2)cc1`, which inhibition is on record?
Answer: The inhibition was inactive: 0.638%.

Question: With `CCN1CCCC(OC(=O)C2(O)c3ccccc3C=Cc3ccccc32)C1` (stereo not given) as the compound, how does the inhibition read?
Answer: The inhibition was inactive: 2.6%.

Question: With `Cc1cc(C(=O)NCC2(N3CCCCC3)CCCCC2)ccc1[N+](=O)[O-]` as the compound, how does the inhibition read?
Answer: Its inhibition is inactive: 1.56%.

Question: `O=C(NCC1(N2CCCCC2)CCCCC1)c1cccc(Br)c1` was tested. Which inhibition did it give?
Answer: The inhibition was inactive: -0.549%.

Question: With `Cc1ccccc1C(=O)NCC1(N2CCCCC2)CCCCC1` as the compound, how does the inhibition read?
Answer: Its inhibition is inactive: 1.04%.

Question: Which inhibition does the source give for `CN(C)c1ccc(C(=O)NCC2(N(C)C)CCCCC2)cc1` here?
Answer: The inhibition was inactive: 0.611%.

Question: How did the inhibition turn out when `CN(C)C1CCCC1OC(=O)C(O)(c1ccccc1)c1ccccc1` (stereo not given) was run?
Answer: Its inhibition is inactive: 2.25%.
